Measured values from ChEMBL document CHEMBL4368901 (J Med Chem, 2019).

Experiments:
A549 = experiment: Antiproliferative activity against human A549 cells after 5 days by EZMTT reagent-based assay; format: functional, cell-based; conditions: A549, 120 h
CAKI-1 = experiment: Antiproliferative activity against human Caki1 cells after 5 days by EZMTT reagent-based assay; format: functional, cell-based; conditions: CAKI-1, 120 h

O=C(Cc1cccc(OC(F)(F)F)c1)Nc1ccc(CCCCc2nnc(NC(=O)Cc3ccccn3)s2)nn1
IC50 (A549): 40 nM | IC50 (CAKI-1): 40 nM
